Data from patent US10117956B2, “Radiolabeled active targeting pharmaceutical composition and the use thereof” (Institute of Nuclear Energy Research Atomic Energy Council, …, priority 2013, dated 2018).

Columns and labels:
[1] = Biodistribution test in mice carrying A549 tumor; type: in vivo, mouse; details: for Biodistribution, Tumor: A549 tumor
[2] = Drug dynamics test (WinNonlin, non-compartment model) from blood activity-time curve; type: in vivo, mouse; details: tail vein injection, mice carrying A549 tumor
[3] = 0.5 h after tail vein injection

Substance: ^131I-C225-AuNPs: iodine-131 labeled bioconjugate of antibody C225 and gold nanoparticles
- Biodistribution, Blood [1, 3]: 3.76±0.98 % ID/g
- Biodistribution, Heart [1, 3]: 0.91 ± 0.12 % ID/g
- Biodistribution, Kidney [1, 3]: 3.80 ± 0.65 % ID/g
- Biodistribution, Large intestine [1, 3]: 1.15 ± 0.42 % ID/g
- Biodistribution, Liver [1, 3]: 19.47 ± 1.47 % ID/g
- Biodistribution, Lung [1, 3]: 4.87 ± 2.52 % ID/g
- Biodistribution, Medulla [1, 3]: 6.58 ± 2.22 % ID/g
- Biodistribution, Muscle [1, 3]: 0.57 ± 0.16 % ID/g
- Biodistribution, Small intestine [1, 3]: 1.67 ± 0.23 % ID/g
- Biodistribution, Spleen [1, 3]: 16.41 ± 3.90 % ID/g
- Biodistribution, Urine [1, 3]: 286.9 ± 75.38 % ID/g
- Biodistribution, Blood ([1]; 1 h after tail vein injection): 3.49 ± 0.15 % ID/g
- Biodistribution, Heart ([1]; 1 h after tail vein injection): 1.13 ± 0.17 % ID/g
- Biodistribution, Large intestine ([1]; 1 h after tail vein injection): 1.13 ± 0.21 % ID/g
- Biodistribution, Liver ([1]; 1 h after tail vein injection): 17.31 ± 1.39 % ID/g
- Biodistribution, Lung ([1]; 1 h after tail vein injection): 6.66 ± 3.72 % ID/g
- Biodistribution, Medulla ([1]; 1 h after tail vein injection): 5.64 ± 2.37 % ID/g
- Biodistribution, Muscle ([1]; 1 h after tail vein injection): 0.64 ± 0.05 % ID/g
- Biodistribution, Small intestine ([1]; 1 h after tail vein injection): 1.63 ± 0.29 % ID/g
- Biodistribution, Spleen ([1]; 1 h after tail vein injection): 17.75 ± 7.71 % ID/g
- Biodistribution, Stomach ([1]; 1 h after tail vein injection): 9.14 ± 0.84 % ID/g
- Biodistribution, Urine ([1]; 1 h after tail vein injection): 309.9 ± 2.61 % ID/g
- Biodistribution, Blood ([1]; 2 h after tail vein injection): 3.31 ± 1.08 % ID/g
- Biodistribution, Heart ([1]; 2 h after tail vein injection): 0.99 ± 0.32 % ID/g
- Biodistribution, Kidney ([1]; 2 h after tail vein injection): 3.08 ± 0.41 % ID/g
- Biodistribution, Large intestine ([1]; 2 h after tail vein injection): 1.02 ± 0.47 % ID/g
- Biodistribution, Liver ([1]; 2 h after tail vein injection): 18.64 ± 1.82 % ID/g
- Biodistribution, Lung ([1]; 2 h after tail vein injection): 3.85 ± 3.95 % ID/g
- Biodistribution, Medulla ([1]; 2 h after tail vein injection): 3.60 ± 1.37 % ID/g
- Biodistribution, Muscle ([1]; 2 h after tail vein injection): 0.58 ± 0.33 % ID/g
- Biodistribution, Small intestine ([1]; 2 h after tail vein injection): 1.89 ± 0.67 % ID/g
- Biodistribution, Spleen ([1]; 2 h after tail vein injection): 17.91 ± 3.18 % ID/g
- Biodistribution, Stomach ([1]; 2 h after tail vein injection): 11.24 ± 4.28 % ID/g
- Biodistribution, Urine ([1]; 2 h after tail vein injection): 169.4 ± 22.38 % ID/g
- Biodistribution, Blood ([1]; 4 h after tail vein injection): 2.84 ± 0.45 % ID/g
- Biodistribution, Heart ([1]; 4 h after tail vein injection): 1.03 ± 0.26 % ID/g
- Biodistribution, Kidney ([1]; 4 h after tail vein injection): 2.47 ± 1.19 % ID/g
- Biodistribution, Large intestine ([1]; 4 h after tail vein injection): 1.38 ± 0.20 % ID/g
- Biodistribution, Liver ([1]; 4 h after tail vein injection): 14.15 ± 1.19 % ID/g
- Biodistribution, Lung ([1]; 4 h after tail vein injection): 3.87 ± 1.15 % ID/g
- Biodistribution, Medulla ([1]; 4 h after tail vein injection): 3.86 ± 0.86 % ID/g
- Biodistribution, Muscle ([1]; 4 h after tail vein injection): 0.65 ± 0.15 % ID/g
- Biodistribution, Small intestine ([1]; 4 h after tail vein injection): 2.24 ± 0.73 % ID/g
- Biodistribution, Spleen ([1]; 4 h after tail vein injection): 18.65 ± 3.93 % ID/g
- Biodistribution, Stomach ([1]; 4 h after tail vein injection): 10.86 ± 2.90 % ID/g
- Biodistribution, Urine ([1]; 4 h after tail vein injection): 75.08 ± 23.02 % ID/g
- Biodistribution, Blood ([1]; 24 h after tail vein injection): 0.15 ± 0.01 % ID/g
- Biodistribution, Heart ([1]; 24 h after tail vein injection): 0.05 ± 0.00 % ID/g
- Biodistribution, Kidney ([1]; 24 h after tail vein injection): 0.91 ± 0.07 % ID/g
- Biodistribution, Large intestine ([1]; 24 h after tail vein injection): 0.07 ± 0.02 % ID/g
- Biodistribution, Liver ([1]; 24 h after tail vein injection): 4.84 ± 0.57 % ID/g
- Biodistribution, Lung ([1]; 24 h after tail vein injection): 0.73 ± 0.25 % ID/g
- Biodistribution, Medulla ([1]; 24 h after tail vein injection): 1.70 ± 0.64 % ID/g
- Biodistribution, Muscle ([1]; 24 h after tail vein injection): 0.02 ± 0.01 % ID/g
- Biodistribution, Small intestine ([1]; 24 h after tail vein injection): 0.09 ± 0.04 % ID/g
- Biodistribution, Spleen ([1]; 24 h after tail vein injection): 6.09 ± 0.34 % ID/g
- Biodistribution, Urine ([1]; 24 h after tail vein injection): 4.43 ± 1.31 % ID/g
- Biodistribution, Tumor [1, 3]: 1.75 ± 0.49 % ID/g
- Biodistribution, Tumor ([1]; 1 h after tail vein injection): 1.69 ± 0.20 % ID/g
- Biodistribution, Tumor ([1]; 2 h after tail vein injection): 1.46 ± 0.71 % ID/g
- Biodistribution, Tumor ([1]; 4 h after tail vein injection): 1.66 ± 0.42 % ID/g
- Biodistribution, Tumor ([1]; 24 h after tail vein injection): 0.11 ± 0.02 % ID/g
- AUCinf [2]: 44.34 h × % ID/mL
- AUClast [2]: 43.25 h × % ID/mL
- Cmax [2]: 3.76 % ID/mL
